The values that follow come from PMC6874179, “Development of Macrocycle Kinase Inhibitors for ALK2 Using Fibrodysplasia Ossificans Progressiva‐Derived Endothelial Cells” (JBMR Plus, 2019).

For this assay, the target named is T1, caALK2 (Homo sapiens, UniProt Q04771, Q207D).
T1 construct: expressed in transfected cells; host or cells: C2C12 murine myofibroblast cells
T1 sequence (Q04771 21-509 Q207D): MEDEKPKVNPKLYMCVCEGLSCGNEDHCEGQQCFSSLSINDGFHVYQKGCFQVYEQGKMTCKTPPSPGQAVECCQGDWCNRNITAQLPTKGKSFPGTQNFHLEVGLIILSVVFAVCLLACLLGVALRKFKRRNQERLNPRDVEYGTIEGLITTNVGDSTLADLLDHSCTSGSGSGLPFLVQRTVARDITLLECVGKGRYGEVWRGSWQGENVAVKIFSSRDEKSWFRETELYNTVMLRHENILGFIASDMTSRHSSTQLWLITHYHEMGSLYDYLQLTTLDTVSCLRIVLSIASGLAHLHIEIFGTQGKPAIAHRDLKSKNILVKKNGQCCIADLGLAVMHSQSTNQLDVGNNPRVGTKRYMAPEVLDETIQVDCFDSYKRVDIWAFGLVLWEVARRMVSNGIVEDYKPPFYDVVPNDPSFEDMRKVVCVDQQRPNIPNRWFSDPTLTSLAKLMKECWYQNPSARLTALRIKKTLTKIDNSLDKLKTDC
The assay can be described thus: BRE-LUC with constitutive active ALK2 in C2C12 cells. The assay is classed as cell-based. To be noted: compound 0.5μM 16 hours. The method, then:
Compounds were added for 16 hours at 0.5μM before luciferase activity was measured.
For luciferase reporter assays, cells were seeded in 24-well plates and transfected with DharmaFECT Duo (Fisher Scientific, Landsmeer, The Netherlands), following the recommendations of the manufacturer. 48 hours after transfection the cells were harvested and lysed. […] Each transfection mixture was equalized with empty vector when necessary and every experiment was performed in triplicate.

`c1ccc2c(-c3cnn4cc(-c5ccc(N6CCNCC6)cc5)cnc34)ccnc2c1` [LDN-193189, reference compound]: the “Inhibition of caALK2-driven BRE-LUC activity” value was “significantly inhibited”.
